This is an account of results in ChEMBL document CHEMBL1134615, “Structure-based design and synthesis of potent matrix metalloproteinase inhibitors derived from a 6H-1,3,4-thiadiazine scaffold” (J Med Chem, 2001).

The structures appear in SMILES notation.

The target of this test is T1, Interstitial collagenase (Homo sapiens, UniProt P03956).
T1 sequence (P03956 whole entry): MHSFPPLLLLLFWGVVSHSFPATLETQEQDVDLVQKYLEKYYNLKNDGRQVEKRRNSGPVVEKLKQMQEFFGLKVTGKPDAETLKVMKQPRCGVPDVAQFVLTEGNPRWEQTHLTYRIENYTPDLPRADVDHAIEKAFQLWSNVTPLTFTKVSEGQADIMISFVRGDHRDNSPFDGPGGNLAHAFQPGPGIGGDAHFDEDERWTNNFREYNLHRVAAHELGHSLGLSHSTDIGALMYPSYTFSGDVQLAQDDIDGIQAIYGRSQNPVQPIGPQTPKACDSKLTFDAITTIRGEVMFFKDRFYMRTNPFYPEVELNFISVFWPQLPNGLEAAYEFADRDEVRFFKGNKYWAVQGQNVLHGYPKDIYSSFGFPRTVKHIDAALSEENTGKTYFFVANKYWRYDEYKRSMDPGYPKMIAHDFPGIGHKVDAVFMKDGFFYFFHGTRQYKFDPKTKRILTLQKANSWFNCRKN
In words: In vitro inhibitory activity against full-length human matrix metalloprotease-1.

The compound `C[C@H](NS(=O)(=O)c1cccs1)C(=O)NC1=NN=C(c2ccc(Cl)cc2)CS1` came in with a Ki of 1040 nM.

The Ki is a dissociation constant, usually derived from enzyme kinetics or from competition with a known ligand. Higher therefore signals a looser hold on the target.
